Measurements published in US20210177819A1, “METHODS AND COMPOSITIONS FOR MODULATING CALCIUM CHANNELS” (Northwestern University, priority 2005, published 2021).

System: L-type calcium channels
Conditions: FIG. 1 and FIG. 4

COC(=O)C1=C(C)NC(C)=C(C(=O)OC(C)C)C1c1cccc2nonc12 (centres unmarked) [isradipine, 3,5-pyridinedicarboxylic acid, 4-(4-benzofurazanyl)-1,4-dihydro-2,6-dimethyl-, methyl 1-methylethyl ester] was tested, and the “inhibition of L-type calcium channels” value was “inhibited”.
With COCCOC(=O)C1=C(C)NC(C)=C(C(=O)OC(C)C)C1c1cccc([N+](=O)[O-])c1 (centres unmarked) [nimodipine, isopropyl 2-methoxyethyl 1,4-dihydro-2,6-dimethyl-4-(m-nitrophenyl)-3,5-pyridinedicarboxylate] the “inhibition of L-type calcium channels” value was “inhibited”.
